Test system: cheek of sensory person (who has sensitive skin)
Experiment: Sensory Irritation Test
Type: in vivo, human
Details: 3 mass % sample aqueous solution, 1 mL on cheek, ten minutes, n=2 (Table 4)

Substance | Evaluation (sensory irritation)
N-acetyl-L-glutamic acid 1-piperidine amide | A (Average rating is less than 0.2)
N-acetyl-N′,N′,N″,N″-tetraethyl-L-glutamic acid-1,5-diamide | A (Average rating is less than 0.2)
N-acetyl-N′,N″-dimethyl-L-glutamic acid-1,5-diamide | A (Average rating is less than 0.2)
N-acetyl-N′-benzyl-L-glutamic acid-1-amide | A (Average rating is less than 0.2)
N-acetyl-N′-cyclohexyl-L-glutamic acid-1-amide | A (Average rating is less than 0.2)
N-acetyl-N′-ethyl-L-glutamic acid-1-amide | A (Average rating is less than 0.2)
N-acetyl-N′-methyl-L-glutamic acid-1-amide | A (Average rating is less than 0.2)
N-benzoyl-L-glutamic acid 1-morpholine amide | A (Average rating is less than 0.2)
N-benzoyl-N′-methyl-L-glutamic acid-1-amide | A (Average rating is less than 0.2)
N-benzoyl-N′-n-propyl-L-glutamic acid-1-amide | A (Average rating is less than 0.2)

Same assay, conditions: 3 mass %, test subject with sensitive skin

Substance | sensory irritation (Tables 4 and 5)
N-acetyl-L-glutamic acid bis-1,5-piperidine amide | had no problem in sensory irritation
N-acetyl-N′,N′,N″,N″-tetraethyl-L-glutamic acid-1,5-diamide | had no problem in sensory irritation
N-acetyl-N′,N′,N″,N″-tetramethyl-L-glutamic acid-1,5-diamide | had no problem in sensory irritation
N-acetyl-N′-cyclopentyl-L-glutamic acid-1-amide | had no problem in sensory irritation
N-benzoyl-N′-methyl-L-glutamic acid-1-amide | had no problem in sensory irritation

Reference: patent publication US20110004019A1, “Parakeratosis Inhibitor, Pore-Shrinking Agent, Or Rough Skin Inhibiting/Ameliorating Agent, And External Composition For Skin Containing The Same” (SHISEIDO COMPANY LTD., priority 2008, published 2011)
